Results on one substance are retold here after US20180360100A1, “Unexpectedly Enhanced Pigments Compositions and Processes” (SCIENTIFIC HOLDINGS, LLC, priority 2017, published 2018).

The data set can be described thus: Solubilities of pigments in diluents, terpenes and cannabinoids. The settings on record: in OBP (dipropylene glycol), nexus, terpenes, cannabinoids. An excerpt: Solubilities of Pigments. The present disclosure encompasses solubility embodiments.

Regarding Curcumins, the solubility of pigment entry was “soluble at necessary levels for full pigmentation of obp, nexus, and terpenes”.
